Source: patent US20230043948A1, “METHOD AND KIT FOR CELL GROWTH” (PRECISION CANCER TECHNOLOGIES INC ., priority 2019, published 2023)

What was measured:
[1] = test system: lung cancer cells overexpressing the EGFR receptor (PDX); experiment: ex vivo drug testing of lung cancer cells overexpressing EGFR in 3D hydrogel; type: cell-based, human; settings: responder conditions of example 1a (hydrogel without any RGD motif); FIG. 1e
[2] = test system: PDX cells of pancreatic ductal adenocarcinoma (PDAC) cancer model PAXF736; experiment: ex vivo drug sensitivity of PDX PDAC cells in different gels; type: cell-based, human
Protocol: (§1) Pancreatic ductal adenocarcinoma (PDAC) cancer cells from a patient were first expanded in mice as a PDX model. The PDX-derived cells were grown in a range of extracellular matrix conditions.
A PEG was used as a hydrogel precursor molecule for making a non self-degradable hydrogel. As a crosslinking agent, peptides containing at least two, preferably two cysteine moieties were used which varied in their amino acid sequence, in particular with respect to the presence or absence of a RGD adhesion motif and with respect to the presence or absence of a MMP degradation sequence. A further variation that was made to some hydrogels was the attachment of a bioactive ligand comprising a RGD or a cyclic RGD adhesion motif, or alternatively a bioactive ligand comprising a DGEA motif. An array of hydrogels varying in the above preselected features was established, by the method described above.
The mechanical properties of the hydrogels were also varied (hard (2000-3000 Pa), medium (1000-2000 Pa) or soft (50-1000 Pa) gels).
A variety of different known, commonly employed and/or commercially available culture media was used.
In FIG. 2a and FIG. 2b, the results are shown for a soft non self-degradable PEG hydrogel with a crosslinking moiety without RGD motif, and with a bioactive ligand comprising a RGD adhesion motif (example 2a), as well as for a soft non self-degradable PEG hydrogel with a crosslinking moiety with RGD motif, and with a bioactive ligand comprising a DGEA adhesion motif (example 2b). For comparison, tests were also conducted in the undefined natural-derived matrix Matrigel® (comparative example 2).

[3] = test system: pancreatic ductal adenocarcinoma (PDAC) cancer model PAXF736; experiment: in vivo treatment of PDX PDAC model; design: species or system human
Protocol: as §1

## Cetuximab
[1]
  drug response (effect of treatment): clear effect
[2]; Matrigel (comparative example 2)
  drug sensitivity: no effect
[2]; hydrogel of example 2a (soft, crosslinker without RGD, RGD ligand), FIG. 2b
  drug sensitivity: comparable to that of Matrigel®; also recorded: much lower
[2]; hydrogel of example 2b (soft, crosslinker with RGD, DGEA ligand), FIG. 2b
  drug sensitivity: much higher drug sensitivity
[3]
  tumor growth in vivo: reduces the tumor growth

Entries after “also recorded” stand apart in the source; their conditions may differ.
